Molecular target: Voltage-gated inwardly rectifying potassium channel KCNH2 (Homo sapiens, UniProt Q12809)

Amino acid sequences for entries named in this document (tags omitted). A change or cut given only in a name is not applied to a line headed by its entry.
UniProt Q12809: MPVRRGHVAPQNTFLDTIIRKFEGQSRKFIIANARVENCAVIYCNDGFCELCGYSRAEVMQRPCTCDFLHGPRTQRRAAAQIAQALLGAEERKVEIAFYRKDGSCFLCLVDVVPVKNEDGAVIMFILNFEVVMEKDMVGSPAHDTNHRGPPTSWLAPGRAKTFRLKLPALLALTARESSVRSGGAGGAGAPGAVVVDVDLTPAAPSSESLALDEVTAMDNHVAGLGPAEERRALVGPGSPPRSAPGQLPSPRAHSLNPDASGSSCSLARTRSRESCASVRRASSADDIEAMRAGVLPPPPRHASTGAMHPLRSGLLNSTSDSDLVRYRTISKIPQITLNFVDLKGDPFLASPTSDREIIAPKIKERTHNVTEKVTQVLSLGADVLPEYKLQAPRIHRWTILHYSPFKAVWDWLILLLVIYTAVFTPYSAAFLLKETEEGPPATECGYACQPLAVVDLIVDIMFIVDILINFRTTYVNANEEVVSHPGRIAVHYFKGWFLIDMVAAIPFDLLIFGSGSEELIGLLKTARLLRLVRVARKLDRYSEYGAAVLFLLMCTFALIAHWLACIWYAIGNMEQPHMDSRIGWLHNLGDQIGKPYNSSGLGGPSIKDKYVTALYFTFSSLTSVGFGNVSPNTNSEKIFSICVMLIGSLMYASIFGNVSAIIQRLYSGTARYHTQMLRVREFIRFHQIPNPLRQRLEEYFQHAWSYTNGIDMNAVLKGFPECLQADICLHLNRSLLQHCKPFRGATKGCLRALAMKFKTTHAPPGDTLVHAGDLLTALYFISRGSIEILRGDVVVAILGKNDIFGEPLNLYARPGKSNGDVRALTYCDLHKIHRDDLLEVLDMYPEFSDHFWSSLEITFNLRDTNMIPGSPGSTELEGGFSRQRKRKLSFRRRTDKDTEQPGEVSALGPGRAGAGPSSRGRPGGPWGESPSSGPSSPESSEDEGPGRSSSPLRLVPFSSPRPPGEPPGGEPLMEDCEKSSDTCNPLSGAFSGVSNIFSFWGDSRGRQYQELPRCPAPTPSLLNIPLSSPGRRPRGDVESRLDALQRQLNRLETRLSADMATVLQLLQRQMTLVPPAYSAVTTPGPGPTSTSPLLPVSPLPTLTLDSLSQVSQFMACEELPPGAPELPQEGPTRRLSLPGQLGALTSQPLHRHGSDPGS

## CC(=O)N1CCC(c2ccc(-c3cc(C(=O)O)cc4cc(-c5ccc(C(F)(F)F)cc5)ccc34)cc2)CC1
  EC50: 16 µM
